Measured values published in ChEMBL document CHEMBL1955802, “Amidine-oximes: reactivators for organophosphate exposure” (2011).

How the values were obtained:
[1] = Chemical stability of the compound assessed as drug degradation after 3 months at -18 degreeC; details: 2191.5 h
Mus musculus = test: Toxicity in ip dosed Swiss Webster mouse assessed as mortality after 24 hrs; details: in vivo
[2] = Drug degradation of the compound in CD2Cl2 after 5 days; details: 120 h
Rattus norvegicus = test: Toxicity in iv dosed rat assessed as mortality; details: in vivo
[3] = Dissociation constant, pKa of the compound

Row | SMILES | Drug degradation [1] | Drug degradation [2] | other results
1 | CC/N=C(/C=N/O)N(C)C.Cl | Not Active |  | Activity (Mus musculus): Non-toxic
2 | CC/N=C(/C=N/O)N(C)C |  | Active | 
3 | CCC/N=C(/C=N/O)N(C)C.Cl | Not Active |  | 
4 | CN(C)C(=N)/C=N/O |  | Active | 
5 | C[n+]1ccc(/C=N/O)cc1.[Cl-] |  |  | LD50 (Rattus norvegicus): 4.2 mg/kg
6 | CCC/N=C(/C=N/O)N(C)C |  | Active | 
7 | O/N=C/c1cc[n+](C[n+]2ccc(/C=N/O)cc2)cc1.[Cl-].[Cl-] |  |  | pKa [3]: 7.3
8 | C/N=C(/C=N/O)N(C)C |  | Active | 
9 | CN(C)C(=N)/C=N/O.Cl | Not Active |  | 
10 | C/N=C(/C=N/O)N(C)C.Cl | Not Active |  | 
